In PubChem BioAssay AID1224863 (Southern Research Institute, 2016):
The campaign covered roughly 10,000 compounds. About 15 (0.1%) were called active.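 How the source made its calls: active means highest signal at least 8 times the median of untreated cell-only control wells at some dose; inactive means the rest.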 A selection follows.

Chains of the proteins cited; added tags and fusions are not shown. A line that says so, or that is headed by a name, gives the form on record, which may keep a tag or linker.
UniProt P13569, with tags, fused parts or gaps F508del: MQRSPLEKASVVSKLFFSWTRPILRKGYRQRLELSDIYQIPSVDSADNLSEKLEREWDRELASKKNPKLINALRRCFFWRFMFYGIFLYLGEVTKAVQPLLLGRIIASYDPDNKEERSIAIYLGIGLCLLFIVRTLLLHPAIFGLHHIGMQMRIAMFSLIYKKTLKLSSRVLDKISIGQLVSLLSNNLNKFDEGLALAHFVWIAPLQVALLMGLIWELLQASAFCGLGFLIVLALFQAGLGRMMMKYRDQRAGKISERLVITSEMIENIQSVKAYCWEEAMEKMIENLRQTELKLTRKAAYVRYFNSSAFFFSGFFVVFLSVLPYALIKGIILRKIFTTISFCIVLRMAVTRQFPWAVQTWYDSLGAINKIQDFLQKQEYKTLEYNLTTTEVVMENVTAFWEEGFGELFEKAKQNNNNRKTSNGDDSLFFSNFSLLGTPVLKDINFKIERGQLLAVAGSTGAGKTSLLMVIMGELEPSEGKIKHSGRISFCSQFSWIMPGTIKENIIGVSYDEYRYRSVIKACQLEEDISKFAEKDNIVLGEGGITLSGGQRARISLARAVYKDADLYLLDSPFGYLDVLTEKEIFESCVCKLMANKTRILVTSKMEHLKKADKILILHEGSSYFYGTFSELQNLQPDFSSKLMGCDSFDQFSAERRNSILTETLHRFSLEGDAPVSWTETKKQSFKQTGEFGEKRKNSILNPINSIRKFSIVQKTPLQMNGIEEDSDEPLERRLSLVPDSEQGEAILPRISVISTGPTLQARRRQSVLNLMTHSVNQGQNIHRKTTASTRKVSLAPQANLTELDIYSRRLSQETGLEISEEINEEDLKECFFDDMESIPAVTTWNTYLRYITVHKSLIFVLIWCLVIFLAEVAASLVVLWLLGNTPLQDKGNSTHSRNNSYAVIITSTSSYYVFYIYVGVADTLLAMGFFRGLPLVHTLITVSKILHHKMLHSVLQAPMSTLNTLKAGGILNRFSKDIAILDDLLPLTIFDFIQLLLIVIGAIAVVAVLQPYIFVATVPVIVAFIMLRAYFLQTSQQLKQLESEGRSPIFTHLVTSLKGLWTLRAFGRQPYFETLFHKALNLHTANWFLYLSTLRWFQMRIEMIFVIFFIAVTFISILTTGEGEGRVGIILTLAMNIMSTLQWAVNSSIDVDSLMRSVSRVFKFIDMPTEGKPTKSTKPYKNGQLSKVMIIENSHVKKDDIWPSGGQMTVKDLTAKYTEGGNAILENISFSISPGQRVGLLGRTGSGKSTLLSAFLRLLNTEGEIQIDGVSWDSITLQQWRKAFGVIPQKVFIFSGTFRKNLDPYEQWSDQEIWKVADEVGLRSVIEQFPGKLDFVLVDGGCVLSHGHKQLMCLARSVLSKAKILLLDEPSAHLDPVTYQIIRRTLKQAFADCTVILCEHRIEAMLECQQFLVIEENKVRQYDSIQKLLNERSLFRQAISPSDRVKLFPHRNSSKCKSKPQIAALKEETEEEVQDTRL

Experiments:
[1] = total CFTR protein upregulators, primary screen, cell-based, HeLa F508del-CFTR, immunofluorescence, viability (AID 1224863); conditions: 24 h, stronger effect = higher value; min viability: measured here: HeLa viability, alamarBlue, dose 20, library dosed in µg/mL unless noted; viability: measured here: primary viability 10 ug/mL, library dosed in µg/mL unless noted;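 on fold increase: total CFTR protein by anti-CFTR immunofluorescence in fixed cells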
[2] = target: Cystic fibrosis transmembrane conductance regulator (Homo sapiens) (UniProt P13569); experiment: as above; conditions: 24 h; fold increase: measured here: primary screen 10 ug/mL, library dosed in µg/mL, stronger effect = higher value unless noted; max fold increase: dose 10, library dosed in µg/mL, stronger effect = higher value unless noted; outcome: library dosed in µg/mL unless noted

| Structure (SMILES) | viability [1] | fold increase [2] | outcome [2] |
| --- | --- | --- | --- |
| CCCCOCCCNS(=O)(=O)c1ccc(S(=O)(=O)C(F)F)cc1 | 80% | 0.94 | inactive |
| Cc1ccsc1C(=O)N1CCN(S(=O)(=O)N(C)C2CCCCC2)CC1 | 83% | 0.92 | inactive |
| O=C1c2ccccc2C(O)(c2ccc(Cl)cc2)N1CCSCc1ccco1 (stereo not drawn) | 77% | 0.9 | inactive |
| Cn1cc(S(=O)(=O)NC2(c3ccc4c(c3)OCCO4)CCCC2)c(=O)n(C)c1=O | 94% | 1.05 | inactive |
| O=C(NC1CCCCCC1)C1CC=CCC1 (stereo not drawn) | 96% | 1.02 | inactive |
| O=c1c2ccccc2nnn1COc1ccccc1Cl | 116% | 0.98 | inactive |
| CCOCCSc1nnc(-c2ccccc2)n1C | 106% | 1.04 | inactive |
| Fc1ccc2sc(CNc3ccc4nnnn4n3)cc2c1 | 105% | 1.2 | inactive |
| CCN(CC)C(=O)C(C)NC(=O)c1c(C)oc(-n2cccc2)c1C#N (stereo not drawn) | 90% | 0.95 | inactive |
| Cc1noc(C)c1CN1CCCC(NS(C)(=O)=O)C1 (stereo not drawn) | 110% | 1.04 | inactive |
| CC(C)n1nnnc1SCc1ccc([N+](=O)[O-])cc1 | 91% | 0.94 | inactive |
| Clc1ccc(CN2CCN(c3ccc(Br)cn3)CC2)s1 | 105% | 1.02 | inactive |
| O=C(NCCc1ccccc1F)NC1CCSc2ccccc21 (stereo not drawn) | 95% | 1.02 | inactive |
| COc1ccccc1-c1noc(CSC23CC4CC(CC(C4)C2)C3)n1 | 70% | 0.79 | inactive |
| O=S(=O)(Nc1ccc2c(c1)OCCO2)c1cc(F)cc(F)c1 | 97% | 0.92 | inactive |
| O=C(NCCc1ccc2c(c1)OCCO2)NCc1cccnc1OC1CCCC1 | 91% | 0.85 | inactive |
| CCC1CCC2(CC1)NC(=O)N(CC(=O)NCC1CCCO1)C2=O (stereo not drawn) | 102% | 0.98 | inactive |
| Cc1[nH]c2ccccc2c1C(=O)C(C)OC(=O)C12CC3CC(C1)CC(c1ccccc1)(C3)C2 (stereo not drawn) | 85% | 0.91 | inactive |
| CC(C)c1ccc(C(NC(=O)CN2C(=O)NC(C)(c3ccc4c(c3)OCO4)C2=O)C(C)C)cc1 (stereo not drawn) | 81% | 0.84 | inactive |
| Cn1nnn(CN2CCN(c3ccccc3)CC2)c1=S | 101% | 1.1 | inactive |
| CNc1nnc(Sc2nc3cc(C)nn3c3ccccc23)s1 | 97% | 1.1 | inactive |

| Structure (SMILES) | viability [1] | fold increase [2] | outcome [2] |
| --- | --- | --- | --- |
| CN(CC(=O)NC(=O)NCCC1=CCCCC1)Cc1ccc(Cl)s1 | 85% | 0.92 | inactive |
| C#CCOc1ccc(CNC(C)c2ccc(Br)cc2)cc1OCC (stereo not drawn) | 76% | 0.94 | inactive |
| CN(Cc1ccccc1Cl)Cn1ncn(-c2cccc(Cl)c2)c1=S | 105% | 1.04 | inactive |
| Cn1ccnc1COc1ccc(C(=O)O)cc1 | 89% | 1.02 | inactive |
| Cc1cc(-c2nccn2C)c(=O)[nH]n1 | 99% | 1.08 | inactive |
| Cc1cc(NC(=O)N2CCN(C(=O)OC(C)(C)C)CC2)no1 | 102% | 1.12 | inactive |
| CC(C)CN1C(=O)c2ccc([N+](=O)[O-])cc2C1=O | 88% | 0.89 | inactive |
| O=C1NC2(CCCCCC2)C(=O)N1CN1CCCCCCC1 | 76% | 0.99 | inactive |
| Cc1cccc2nc(CSc3ccc4ccccc4n3)cc(=O)n12 | 83% | 1.04 | inactive |
| O=[N+]([O-])c1cn(Cc2cn(-c3ccccc3)nc2-c2ccc(Cl)cc2)cn1 | 103% | 1.3 | inactive |
| O=C(COc1cc(Cl)c(Cl)cc1Cl)N1CCN(C(=O)C2CCCO2)CC1 (stereo not drawn) | 99% | 0.97 | inactive |
| CCN(CC)S(=O)(=O)c1ccc(S(=O)(=O)Nc2nc3ccccc3nc2N2CCCC2)cc1 | 92% | 1.04 | inactive |
| Cc1nnc(COC(=O)C2=Cc3ccccc3OC2)o1 | 102% | 1.03 | inactive |
| CN(C)C(=O)c1ccc(N2CCOC2=O)cc1 | 97% | 0.98 | inactive |
| CCCCn1c(N)c(N(C)C(=O)CCS(=O)(=O)CC(C)C)c(=O)[nH]c1=O | 103% | 1 | inactive |
| CN1CCC(CNC(=O)C23CC4CC(CC(Cl)(C4)C2)C3)c2ccccc21 (stereo not drawn) | 77% | 1.08 | inactive |
| CC(c1nc2ccccc2s1)N(C)CN1C(=O)C2CC=CCC2C1=O (stereo not drawn) | 91% | 1.02 | inactive |
| COC(=O)/C=C/c1ccc(OCC(=O)c2ccc(OC(F)F)cc2)c(OC)c1 | 94% | 1.05 | inactive |
| CCOc1c(Br)cc(CNC(C)C2CCCO2)cc1Br (stereo not drawn) | 99% | 1.09 | inactive |
| Cc1cc(C(C)(C)C)ccc1Oc1ccc2nnnn2n1 | 71% | 1 | inactive |
